# Measured affinities in a library of Ab-14 light chain variants

Binding partner: SARS-CoV-2 spike HR2 peptide, sequence PDVDLGDISGINAS.

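Designed CDR sequences, proposed from the first random library and measured here. Group labels follow the data file (Ctrl: baseline library sampled from a position-specific scoring matrix, with some repeated check sequences; Rand: our label for a block that the file lists under HC and that is probably the random mutants of the ten best first-round binders; En: ensemble of fine-tuned language models; GP: Gaussian process model; HC: hill climbing; Gen: genetic algorithm; Gibbs: Gibbs sampling; a sequence that several methods proposed may carry one label only). AlphaSeq pools MATa yeast showing the antibodies with MATalpha yeast showing the peptide. Binding brings cells together so that they mate, and sequencing counts the barcode pairs among the diploids. Read counts were normalised to the haploid input and turned into Kd by a linear fit to BCL2-family pairs of known affinity, for each replicate. Each pool was mated in six replicate cultures.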

Parent scFv Ab-14: VH joined to VL by a (GGGGS)3 linker. Changes lie in the light chain CDRs alone.
VH: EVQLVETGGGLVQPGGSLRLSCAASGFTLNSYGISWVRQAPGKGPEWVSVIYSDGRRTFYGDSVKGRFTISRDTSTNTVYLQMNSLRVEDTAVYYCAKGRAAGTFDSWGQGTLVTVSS
VL: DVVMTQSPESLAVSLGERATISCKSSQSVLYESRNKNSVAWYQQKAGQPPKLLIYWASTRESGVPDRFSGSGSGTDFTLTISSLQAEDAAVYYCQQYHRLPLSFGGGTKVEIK

Each variant is given by its three light chain CDRs, as the data file delimits them; those of the parent are KSSQSVLYESRNKNSVA, WASTRES, QQYHRLPLS.
Values are log10 of the apparent Kd in nM; lower means stronger binding.
Averages over replicates are reported, and they cover detected replicates only.
"nd" means that the variant was in the library but no mating with the target was seen in any replicate; the authors take this as a sign of poor binding, and no number exists.
The parent sequence was in this pool as ten entries: three were never detected, three once, and four in most replicates, with averages from 0.34 to 2.37.

| CDR-L1 | CDR-L2 | CDR-L3 | group | mean, log10 nM | seen in |
|---|---|---|---|---|---|
| KLDPSDLGESRNWNSVA | HASTREI | QQYHQLPLS | GP_Gibbs | 0.06 | 6 of 6 |
| KSSISYLYESRNKNSVA | AASMRES | QQYHRLPLS | GP_HC | 0.14 | 6 of 6 |
| RLLDWAYNLTAKDSNIA | DQDISGS | QQYSHLPLA | En_Gibbs | 2.39 | 2 of 6 |
| KSSQSVLYEDSNKNSVA | WASTRES | QQYQRLPLL | Ctrl | 1.80 | 3 of 6 |
| KFEQSNLYESRNKNSVA | NASQRES | QQYHRLPLS | GP_Gen | 0.09 | 6 of 6 |
| KLSQSQLYDSRNKNSVA | NASTRES | QQYHRLPLS | GP_HC | 0.32 | 6 of 6 |
| KFSQSYLYESRNKNSVA | NASTRLS | QQYHRLPLS | GP_Gen | -0.24 | 6 of 6 |
| KLSQSDLYESRNKNSVA | NASTRCS | QQYHRLPLS | GP_Gen | -0.31 | 6 of 6 |
| KLSQSVPYESRNKNSVA | EASTRES | QAYHRLPLS | GP_Gen | 0.60 | 6 of 6 |
| KSSISYLTESRNENSVA | EASTREQ | QQYHRLPLS | GP_HC | 0.76 | 6 of 6 |
| QLSGPMLLESKNKNSVA | EFSTRGS | QQYHRLPLS | En_HC | 1.43 | 6 of 6 |
| KIGQLFMLEQYHKNNVA | GTETRVR | QHYHRLPLS | En_Gen | 2.78 | 4 of 6 |
| KSMQSVLYESRNKNSVA | WASTRES | QDYHRLPLS | Ctrl | 2.17 | 4 of 6 |
| TLMFDGEQEDSENKAIA | DAIHKGV | QQYNRLPLT | En_Gibbs | 1.28 | 6 of 6 |
| YVSGDLAEGWNQQEAIA | HVSYKED | QQYYKLPLS | En_Gibbs | 2.61 | 5 of 6 |
| KMSQSNDYESRNSNAVA | NASQREM | QQYHRLPLS | GP_Gibbs | 0.11 | 6 of 6 |
| KLYQNVGTMSHNKQAIA | DMERRED | QQYHRLPLS | En_HC | -0.12 | 6 of 6 |
| KFSQMDLYESRNKNQVA | SASQRSS | QQYHRLPLS | GP_Gibbs | 0.69 | 6 of 6 |
| KVSQSVLYESRNKNSVA | DASQRES | QQYHRLPLS | GP_Gen | 0.69 | 6 of 6 |
| WLSMSVMLESRNVNSVA | SASTREW | QQYHRLPLS | GP_Gibbs | 2.40 | 3 of 6 |
| KFIQSVLEESRNKNSVA | WASTRES | QQYIRLPLS | Ctrl | 1.24 | 6 of 6 |
| TIGQTLMQGIRNRSNVA | EVSQRLN | QQYDRLPLM | En_Gen | 1.45 | 6 of 6 |
| NLSAMTAHESVKSKNVA | ERSTRES | QQYNRLPLS | En_Gen | 0.93 | 6 of 6 |
| KLSQSDCYEDRNLNNVA | HASQRES | QQYHRLPLM | GP_Gibbs | 0.18 | 6 of 6 |
| KLLQMVNYGSRALNSVA | QMETRED | QQYHRLPLS | En_HC | 2.66 | 2 of 6 |
| KMSQSFLYESRNKNSVA | WASTPES | QVYHRLPLS | Ctrl | 2.40 | 1 of 6 |
| KVSGLGLYGQRNANSVA | EASTRED | QQYHRLPLS | GP_Gibbs | -0.51 | 6 of 6 |
| KLQNLMGTMGKQNQAIA | QGAITRV | QQYQRLPLW | En_Gibbs | nd | 0 of 6 |
| KLSQSTLYESRNKNSVA | NASTREV | QQYHRLPLS | GP_Gen | 0.42 | 6 of 6 |
| KSSISNLYESRNKNSVA | EASTRES | QQYHRLPLM | GP_HC | -0.20 | 6 of 6 |
| SISGFMKSSMAHHNSVA | DMTNRED | QQYDRLPLS | En_Gen | -0.03 | 6 of 6 |
| KFQNGLERGNQGYSAVA | DVTEKGA | QQYLQLPLM | En_Gibbs | 0.92 | 6 of 6 |
| KSSQSQLYESRNKNSVA | WASTRES | QQYHRLPLL | Ctrl | 2.21 | 3 of 6 |
| MISQLMNMGTFAINSVA | QATIRNE | QQYDRLPLQ | En_Gen | 2.21 | 6 of 6 |
| QLDQAYRVGALWTDSIA | HASMRVQ | QCYNRLPLS | En_Gibbs | 3.08 | 3 of 6 |
| KLSSSWLMESRNMNSVA | QASQRLR | QQYHRLPLS | GP_Gibbs | 0.32 | 6 of 6 |
| TISQMFHGESRNRNSVA | QASTRES | QSYDRLPLS | En_HC | 0.71 | 6 of 6 |
| KSSQSILYESVNKNSVA | HASTREQ | QQYHRLPLS | GP_HC | 0.46 | 6 of 6 |
| KSSQSVLPEWRNKNSVA | WASTRES | QQYHRLPLY | Ctrl | 2.68 | 1 of 6 |
| KTSQSVLYESREKNSVA | WASTRES | QQYHRLPLS | Ctrl | 1.55 | 6 of 6 |
| KLQLQPRDGAQAQSSIA | DVSEADM | QQYARLPLH | En_Gibbs | 1.96 | 6 of 6 |
| TLTQVQGMESHNNNSVA | DLSTRGS | QQYHRLPLS | En_HC | 1.62 | 6 of 6 |
| KLTMMFQHTSKNKNNIA | ERSTREE | QQYHHLPLS | En_HC | 0.11 | 6 of 6 |
| MMSQVTGQGQRHRNNVA | QTTTREP | QQYDRLPLV | En_Gen | 1.02 | 6 of 6 |
| KLPQSEGYESRNKNSVA | NASQRES | QQYHRLPLS | GP_Gen | 0.03 | 6 of 6 |
| KMSGSVLYESRNKNSVA | WASTRES | QQYHQLPLS | Ctrl | 0.64 | 6 of 6 |
| QIMEEQSMRTEATWNIA | QGEQKVH | QQYFRLPLA | En_Gibbs | 0.80 | 6 of 6 |
| KLSDSVEYESRNKNSVA | WASERES | QQYHRLPLS | Ctrl | nd | 0 of 6 |
| KLSMNCTGQLNQGNSVA | GATEACI | QQFARLPLS | En_Gibbs | 1.72 | 6 of 6 |
| KSSQSVLYESRNKNSVA | HASTREM | QQYHRLPLS | Ctrl | 1.10 | 6 of 6 |
| MISQLMNLGQFAINSVA | QAEIRNA | QQYDRLPLA | En_Gen | 1.34 | 6 of 6 |
| KSYQGVLYESRNKNSVA | GASQRES | QQYHRLPLS | GP_HC | -0.20 | 6 of 6 |
| KISMMYRYEQQNSSSIA | EVTTRLN | QSYHRLPLS | En_HC | 2.08 | 6 of 6 |
| KSLQSILYESRNKNSVA | HASTYEV | QQYHRLPLS | Rand | -0.03 | 6 of 6 |
| MLYGLSNSMSKNKNNVA | EMTTREV | QQYDRLPLV | En_Gen | 0.92 | 6 of 6 |
| KFEQSVLYESRNKNSVA | NGSTRES | QQYHRLPLS | GP_Gen | -0.32 | 6 of 6 |
| TIAQSMLYLSNLKNSIA | QAETRED | QQYHRLPIS | En_HC | 1.26 | 6 of 6 |
| MVTQMAMSGMTNKRSVA | NAEMRED | QQYHRLPLI | En_Gen | nd | 0 of 6 |
| HVSHQLRPGREIQNPIA | EGSHRAA | QQYDRLPLG | En_Gibbs | 0.86 | 6 of 6 |
| KLSQSVLYESRNSNNVA | DASTRES | QQYHRLPLS | GP_Gen | -0.25 | 6 of 6 |
| KSNQEVEYESRNKNSVA | WASTRES | QQYHRLPLE | Ctrl | 1.86 | 3 of 6 |

The first 6 entries again:

| CDR-L1 | CDR-L2 | CDR-L3 | group | mean, log10 nM | seen in |
|---|---|---|---|---|---|
| KLDPSDLGESRNWNSVA | HASTREI | QQYHQLPLS | GP_Gibbs | 0.06 | 6 of 6 |
| KSSISYLYESRNKNSVA | AASMRES | QQYHRLPLS | GP_HC | 0.14 | 6 of 6 |
| RLLDWAYNLTAKDSNIA | DQDISGS | QQYSHLPLA | En_Gibbs | 2.39 | 2 of 6 |
| KSSQSVLYEDSNKNSVA | WASTRES | QQYQRLPLL | Ctrl | 1.80 | 3 of 6 |
| KFEQSNLYESRNKNSVA | NASQRES | QQYHRLPLS | GP_Gen | 0.09 | 6 of 6 |
| KLSQSQLYDSRNKNSVA | NASTRES | QQYHRLPLS | GP_HC | 0.32 | 6 of 6 |

Values of this round are not directly comparable with the first-round values of the same sequences.
Three control strains display no target. For all light chain designs, 4% of the pairings with them gave a signal, with a median of 2.64 and one signal in twenty below 1.59, so weak values seen in few replicates may be background.
The authors' rule: three or more of the six replicates give a measured affinity, fewer mean a poor binder.

The measurements come from Li et al. 2023 (doi:10.1038/s41467-023-39022-2) through the FLAb antibody collection.